Test results as given in ChEMBL document CHEMBL4665788, “Development of Nonpeptidic Inverse Agonists of the Ghrelin Receptor (GHSR) Based on the 1,2,4-Triazole Scaffold” (J Med Chem, 2020).

Amino acid sequences for entries named in this document (tags omitted).
UniProt Q92847, whole entry: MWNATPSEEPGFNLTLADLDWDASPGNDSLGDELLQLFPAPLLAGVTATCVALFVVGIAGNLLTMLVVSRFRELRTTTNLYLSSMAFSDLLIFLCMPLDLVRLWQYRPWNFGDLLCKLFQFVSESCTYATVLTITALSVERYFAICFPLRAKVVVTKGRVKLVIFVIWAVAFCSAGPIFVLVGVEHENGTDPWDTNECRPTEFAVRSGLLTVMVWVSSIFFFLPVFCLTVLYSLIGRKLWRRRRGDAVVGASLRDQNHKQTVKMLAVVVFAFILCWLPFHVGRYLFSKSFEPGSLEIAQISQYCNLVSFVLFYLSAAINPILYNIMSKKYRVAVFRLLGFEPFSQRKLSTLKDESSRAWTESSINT

Each compound was assayed against T1, Growth hormone secretagogue receptor type 1 (Homo sapiens, UniProt Q92847) (assay: Displacement of red-ghrelin from SNAP-tagged human GHSR expressed in HEK293 cells incubated for 3 hrs at 4 degC or for 1 hr at room temperature by HTRF assay).
Type: cell-based
Work on COc1ccc(Cn2c(CCc3ccccc3)nnc2[C@@H](Cc2c[nH]c3ccccc23)NC(=O)CNC(=O)/C=C/c2ccc(F)cc2)cc1 yielded a Ki of 56 nM.
For COc1ccc(Cn2c(CCc3ccccc3)nnc2[C@@H](Cc2c[nH]c3ccccc23)NC(=O)CNC(C)=O)cc1, the Ki was 10 nM.
Work on COc1ccc(Cn2c(CCc3ccccc3)nnc2[C@@H](Cc2c[nH]c3ccccc23)NC(=O)CNC(=O)c2ccccc2)cc1 yielded a Ki of 115 nM.
COc1ccc(Cn2c(CCc3ccccc3)nnc2[C@@H](Cc2c[nH]c3ccccc23)NC(=O)CNCc2ccccc2)cc1 gave a Ki of 136 nM.
With COc1ccc(Cn2c(CCc3ccccc3)nnc2[C@@H](Cc2c[nH]c3ccccc23)NC(=O)CNC(=O)CN)cc1 the Ki was 130 nM.
Compound C=CC(=O)NCC(=O)N[C@H](Cc1c[nH]c2ccccc12)c1nnc(CCc2ccccc2)n1Cc1ccc(OC)cc1 has a Ki of 4 nM.
Compound COc1ccc(Cn2c(CCc3ccccc3)nnc2[C@@H](Cc2c[nH]c3ccccc23)NC(=O)CNCC(=O)O)cc1 has a Ki of 617 nM.
COc1ccc(Cn2c(CCc3ccccc3)nnc2[C@@H](Cc2c[nH]c3ccccc23)NC(=O)CNC(=O)C#N)cc1 was tested, and the Ki was 1600 nM.
Compound COc1ccc(Cn2c(CCc3ccccc3)nnc2[C@@H](Cc2c[nH]c3ccccc23)NC(=O)CN2CCC(N)CC2)cc1 has a Ki of 220 nM.
For CCN(CC)CC(=O)N[C@H](Cc1c[nH]c2ccccc12)c1nnc(CCc2ccccc2)n1Cc1ccc(OC)cc1, the Ki was 230 nM.
With COc1ccc(Cn2c(CCc3ccccc3)nnc2[C@@H](Cc2c[nH]c3ccccc23)NC(=O)CNC(=O)C2(C#N)CCOCC2)cc1 the Ki was 28 nM.
CNCC(=O)N[C@H](Cc1c[nH]c2ccccc12)c1nnc(CCc2ccccc2)n1Cc1ccc(OC)cc1 was tested, and the Ki was 96 nM.
Compound COc1ccc(Cn2c(CCc3ccccc3)nnc2[C@@H](Cc2c[nH]c3ccccc23)NC(=O)CN(C)C)cc1 has a Ki of 200 nM.
Compound COc1ccc(/C=C(\C#N)C(=O)N[C@H](Cc2c[nH]c3ccccc23)c2nnc(CCc3ccccc3)n2Cc2ccc(OC)cc2)cc1 has a Ki of 122 nM.
Work on COc1ccc(Cn2c(CCc3ccccc3)nnc2[C@@H](Cc2c[nH]c3ccccc23)NC(=O)CNC(=O)C#Cc2ccccc2)cc1 yielded a Ki of 130 nM.
For COc1ccc(Cn2c(CCc3ccccc3)nnc2[C@@H](Cc2c[nH]c3ccccc23)NC(=O)CNC(=O)/C=C/c2ccccc2)cc1, the Ki was 370 nM.
Work on COc1ccc(Cn2c(CCc3ccccc3)nnc2[C@@H](Cc2c[nH]c3ccccc23)NC(=O)CNC(=O)C(C#N)Cc2ccccc2)cc1 (some centres not stated) yielded a Ki of 166 nM.
Work on COc1ccc(Cn2c(CCc3ccccc3)nnc2[C@@H](Cc2c[nH]c3ccccc23)NC(=O)CNC(=O)c2ccc(C#N)nc2)cc1 yielded a Ki of 6.3 nM.
COc1ccc(Cn2c(CCc3ccccc3)nnc2[C@@H](Cc2c[nH]c3ccccc23)NC(=O)CNC(=O)C(C)(C)C#N)cc1 showed a Ki of 3.4 nM.
COc1ccc(Cn2c(CCc3ccccc3)nnc2[C@@H](Cc2c[nH]c3ccccc23)NC(=O)CN)cc1 gave a Ki of 43 nM.
COc1ccc(Cn2c(CCN3CCOCC3)nnc2[C@@H](Cc2c[nH]c3ccccc23)NC(=O)CNC(=O)/C(C#N)=C/c2ccccc2)cc1 gave a Ki of 67 nM.

The compounds below were run against T1, Growth hormone secretagogue receptor type 1 (assay: Inverse agonist activity at SNAP-tagged human GHSR expressed in HEK293 cells assessed as inhibition of ghrelin-induced IP1 response measured after 30 mins by HTRF assay).
Type: functional, cell-based
Work on COc1ccc(Cn2c(CCN3CCOCC3)nnc2[C@@H](Cc2c[nH]c3ccccc23)NC(=O)CNC(=O)/C(C#N)=C/c2ccccc2)cc1 yielded an EC50 of 73 nM.
